According to PMC6663879, “Biochemical and structural investigations clarify the substrate selectivity of the 2-oxoglutarate oxygenase JMJD6” (The Journal of Biological Chemistry, 2019):

Columns and labels:
JMJD6^Δ363–403 [1] = target: T1, JMJD6^Δ363–403 (Homo sapiens, UniProt Q6NYC1); assay: Standard MS-based hydroxylation assay (MALDI-TOF MS) of substrate peptides; format: biochemical; parameters: two more variants (aa 1–362, JMJD6^Δ363–403, and aa 1–343, JMJD6^Δ344–403); His6 (N); made in house; host or cells: Escherichia coli Rosetta2(DE3); conditions: JMJD6^Δ363–403, standard assay conditions, MALDI-TOF MS / LC-MS/MS
JMJD6^Δ363–403 [2] = target: T1, JMJD6^Δ363–403; assay: Standard MS-based demethylation assay (MALDI-TOF, LC-MS/MS); format: biochemical; parameters: two more variants (aa 1–362, JMJD6^Δ363–403, and aa 1–343, JMJD6^Δ344–403); His6 (N); made in house; host or cells: Escherichia coli Rosetta2(DE3); conditions: JMJD6^Δ363–403, 37 °C, HEPES-KOH pH 8.0, MALDI-TOF MS / LC-MS/MS
Experimental: Reaction samples were thereafter analyzed by MALDI-TOF or LC-MS/MS.
Peptides were “trapped” on an in-house packed guard column (75-μm inner diameter × 20 mm, Acclaim PepMap® C18, 3 μm, 100 Å) using solvent A (0.1% (v/v) aqueous formic acid) at a pressure of 140 bar. Peptides were separated on an EASY-Spray Acclaim PepMap® analytical column (75 μm inner diameter × 15 mm, rapid separation liquid chromatography C18, 3 μm, 100 Å) using a linear gradient (length, 100 min; 3–60% solvent B (0.1% formic acid in acetonitrile), flow rate, 300 nl/min). The separated peptides were electro-sprayed directly into the spectrometer operating in a data-dependent mode using a collision-induced dissociation/electron transfer dissociation (CID/ETD)-based method. Full scan MS spectra (scan range 150–2000 m/z, resolution 30,000, AGC target 1 × 10^6, maximum injection time 250 ms) and subsequent CID MS/MS spectra (AGC target 3 × 10^4, maximum injection time 500 ms) of the 10 most intense peaks were acquired in the Orbitrap. CID fragmentation was performed at 35% of the normalized collision energy, and the signal intensity threshold was kept at 500 counts. ETD spectra (AGC cation target 5 × 10^4, AGC anion target 2 × 10^5, and cation maximum injection time 100 ms) were acquired in the ion trap. PEAKS® 8.0 (Bioinformatics Solutions, Inc., Waterloo, Canada) was used to analyze raw data. […]

H3K9me1_1–17: histone peptide monomethylated at Lys^9
JMJD6-catalyzed hydroxylation (+16-Da mass shift), result in words (JMJD6^Δ363–403 [1]): a +16-Da mass shift was observed | JMJD6-catalyzed demethylation (−14 or −28 Da mass shift), result in words (JMJD6^Δ363–403 [2]): not demethylation
